The source of these data is US8168592B2 (Amgen Inc., priority 2005, dated 2012).

Amino acid sequences for entries named in this document (tags omitted). Residues count along the entry.
UniProt Q63118, 24-464: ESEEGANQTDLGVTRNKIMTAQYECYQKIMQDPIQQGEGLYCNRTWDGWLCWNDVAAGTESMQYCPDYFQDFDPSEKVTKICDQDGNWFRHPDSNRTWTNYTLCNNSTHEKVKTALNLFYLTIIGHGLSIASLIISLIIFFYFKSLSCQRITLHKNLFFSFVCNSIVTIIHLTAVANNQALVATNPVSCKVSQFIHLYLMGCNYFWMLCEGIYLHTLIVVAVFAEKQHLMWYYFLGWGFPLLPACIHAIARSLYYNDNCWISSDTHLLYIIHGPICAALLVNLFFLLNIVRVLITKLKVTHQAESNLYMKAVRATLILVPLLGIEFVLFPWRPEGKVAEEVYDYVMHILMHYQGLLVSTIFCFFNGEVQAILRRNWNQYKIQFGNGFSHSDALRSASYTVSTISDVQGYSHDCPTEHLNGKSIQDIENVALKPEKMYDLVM
UniProt Q9JJ74, 27-148: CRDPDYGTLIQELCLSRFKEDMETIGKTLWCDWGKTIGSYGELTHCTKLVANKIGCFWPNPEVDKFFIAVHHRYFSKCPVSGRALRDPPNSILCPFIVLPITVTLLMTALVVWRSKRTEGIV

The conditions of series [1]: cited from earlier work.
The target of another series is T1, CGRP1 receptor (Rattus norvegicus, UniProt Q63118+Q9JJ74).
T1 construct: intradermal injection of hCGRP within a small, defined area of abdominal skin produced a 30-40% increase in local blood flow; from tissue; host or cells: living anaesthetised rat, abdominal skin
Briefly: laser Doppler blood flowmetry assay (hαCGRP-induced skin blood flow). It is filed as in vivo. The following applies: intradermal injection in abdominal skin. How it is done: Methods. An automated laser Doppler blood flowmetry device is used (MoorLDI®; Moor Instrument, Devon, UK). The device was turned on prior to the start of experiments and allowed to warm up for 20 minutes. Blood flow data (in FLUX) were read from software records (see below).
For each rat, the experimental procedure was performed within a single day and was each rat was sacrificed on the same day immediately after the experiment was over. On an experiment day, each rat was weighed and administered 1 ml/kg (intramuscular injection in right leg) of an anesthetic cocktail consisting of Ketamine, Xylazine and PBS (5:3:2). […] The animal was then ready for the experiment.
Approximately 20 min after the injection of the anesthetic cocktail, baseline blood flow readings were collected for each animal. […]
After completion of baseline scanning, the rat was removed from the device. […] After a pre-determined interval, based on pharmacokinetic characteristics of the relevant CGRP peptide antagonist, agonist (human αCGRP; 0.1 μg, 50 μL; interdermal) was injected such that the point of entry of the needle (30 gauge) was remote from the marker dot but the intradermal injection bolus was centered under the dot. […]
In some cases, plasma IC50 values were calculated by performing least squares linear regression on log plasma concentration values (nM) vs. % change in blood flow values calculated for individual rats.

CGRP: native CGRP peptide: the “half-life in mammalian plasma” value in series [1] is “about 10 min”. Consider “hCGRP: agonist, native human αCGRP [reference compound]”, for which, in the series with CGRP1 receptor, the “increase in local blood flow” value was 30-40%.
